Earlier results as cited in patent US20120135104A1, “Enhanced Absorption of Omega Fatty Acid Oils” (priority 2010, published 2012).

Conditions: single emulsifier

tocopheryl polyethylene glycol succinate
HLB value: about 13
